According to patent US20220226329A1, “METHOD TO INDUCE HEMATOPOIETIC CHIMERISM” (The General Hospital Corporation, priority 2019, published 2022):

Key:
Bcl-2 = settings: Selleckchem.com; read-out: inhibitor constant (Ki) to the target proteins; cited from earlier work
[1] = no significant toxicity otherwise

Row | SMILES | Ki (Bcl-2) [nM] | Toxicity [1]
1 | CC1(C)CCC(c2ccc(Cl)cc2)=C(CN2CCN(c3ccc(C(=O)NS(=O)(=O)c4ccc(N[C@H](CCN5CCOCC5)CSc5ccccc5)c(S(=O)(=O)C(F)(F)F)c4)cc3)CC2)C1 [navitoclax] | 0.5 | 
2 | Cc1c(-c2c(-c3ccc(F)o3)sc3ncnc(O[C@H](Cc4ccccc4OCc4ccnn4CC(F)(F)F)C(=O)O)c23)ccc(OCCN2CCN(C)CC2)c1Cl [S63845] |  | mild transient transaminitis and elevated amylase
